Reference: patent US9314474B2, “Formulations of 14-epi-analogues of vitamin D” (HYBRIGENICS, SA, priority 2010, dated 2016)

Settings: cynomolgus monkey, in vivo, po
Procedure: Male cynomolgus monkey received a single oral administration of a high dose of inecalcitol (2 mg/kg) in the same volume (5 ml/kg) for each excipient. Blood samples were drawn at the time of administration (To) and 15, 30, 45, 60, 90 minutes, 3, 6, 9 and 24 hours later. Plasma aliquots were prepared on heparinized tubes and unchanged inecalcitol was specifically assayed by HPLC/MS/MS method.

Olive oil
absorption of inecalcitol compared with MCT (in words): better absorbed
AUC0-24 h (%) (2 mg/kg): 127%
Cmax (−fold) (2 mg/kg): 4.3 fold
Tmax (2 mg/kg): 1 h
